Measurements as given in the supplement of paper PMC12455559.

Key:
[1] = purified protein yield per well (BCA); higher = higher soluble expression
Procedure: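 Candidate PET hydrolases were expressed in E. coli C41(DE3) in 2 mL autoinduction cultures in 24-deep-well plates, Ni-bead purified and released by SUMO protease cleavage on an OT-2 robot. Yield per well was measured by BCA; values below 25 ug (0.1 mg/mL) are below the detection threshold. Melting temperature was measured by differential scanning fluorimetry with Sypro Orange, ramping from 25 C at 0.3 C/step.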

[2] = PET hydrolysis, aromatic products released after 48 h (umol product/mg enzyme); higher = more PET depolymerization activity
Procedure: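 HTP-purified, SUMO-cleaved, tagless PET hydrolase candidates (5 ug, 1.43 mg/g PET) were incubated 48 h without shaking with 3.5 mg amorphous PET film (aFilm) or crystalline PET powder (cryPow) in 0.5 mL buffer: NaCitrate pH 4.5/5.5, NaPhosphate pH 6.5/7.5, glycine pH 8.5. Incubation was at 40 or 60 C. Aromatic products (TPA, MHET, BHET) in the supernatant were quantified by UV absorbance at 260/280 nm relative to buffer blanks and expressed per mg enzyme. LCC-ICCG was the positive control on every plate.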

GSLGAMVDTLSGLSSEQGQSGDMTIEEDSATHIKFSKRDEDGKELAGATMELRDSSGKTISTWISDGQVKDFYLYPGKYTFVETAAPDGYEVATAITFTVNEQGQVTVNGKATKGDAHIDGSGASQTNPYARGPNPTAASLEASAGPFTVRSFTVSRPSGYGAGTVYYPTNAGGTVGAIAIVPGYTARQSSIKWWGPRLASHGFVVITIDTNSTFDYPSSRSSQQMAALRQVASLNGDSSSPIYGKVDTARMGVMGHSMGGGASLRSAANNPSLKAAIPQAPWDSQTNFSSVTVPTLIFACENDSIAPVNSHALPIYDSMSRNAKQFLEINGGSHSCANSGNSNQALIGKKGVAWMKRFMDNDTRYSTFACENPNSTAVSDFRTANCSASGGSGENLYFQGAMVDTLSGLSSEQGQSGDMTIEEDSATHIKFSKRDEDGKELAGATMELRDSSGKTISTWISDGQVKDFYLYPGKYTFVETAAPDGYEVATAITFTVNEQGQVTVNGKATKGDAHID [TEP080]
Settings	purified protein yield per well [µg]
[1]	263

PET hydrolysis, [2]
Settings	pH 4.5	pH 5.5	pH 6.5	pH 7.5
substrate: aFilm, 40 °C	< 3	< 3	5	13.5
substrate: aFilm, 60 °C	< 3	< 3	27.5	62
substrate: cryPow, 40 °C	< 3	4	21	33.5
substrate: cryPow, 60 °C	< 3	8	29	41.5
